The values below come from patent US5153179A, “Medicament with improved penetration of the tissue membrane” (Max-Planck-Gesellschaft zur Foerderung der Wissenschaft e.V., priority 1983, dated 1992).

The data set is described as follows: Blood-brain barrier penetration by the method of Oldendorf (radioactively marked active material, A. carotis injection, brain radioactivity after 15 seconds). Conditions: + dissolved in inger albumin. The method, then:
The effectiveness of the medicament according to the invention was tested according to the method of Oldendorf (Brain-Res., 24, 372-376 (1970)). […] In the case of the medicament according to the invention, the administration took place into the A. carotis. 15 seconds later, the experimental animal was decapitated, the brain removed and the radioactivity bound therein determined. […] The numerical values give the percentage proportion of active material which has passed the blood-brain barrier. As comparative substance, there was employed an isotonic buffer solution. The compound of the general formula was present in iso-osmolar concentration, which corresponds to about 0.3 Osmol/ 1. in the solution administered.
In the case of the experiments according to the method of Oldendorf, the active materials were used in amounts of between 10 and 100 μmol. There was thereby obtained no dependency of the penetration percentage of the active material concentration, i.e. that with increasing amount of active material, the percentage passing the blood-brain barrier remained about the same. In the case of methotrexate as active material, the penetration was also investigated in the case of higher concentrations.
The penetration achieved also depends upon the amount of glycerol derivative of the general formula used. […]

For “phosphatidyl-choline [phosphatidylcholine]”, the “percentage proportion of active material which has passed the blood-brain barrier, with C5” value (with addition of glycerol 1-pentyl ether, about 0.3 Osmol/l) amounted to 16.3 ± 3.3%. The “percentage proportion of active material which has passed the blood-brain barrier, without” value (without addition of a compound of the general formula) is 2.6 ± 0.8%.
